Measured affinities in a library of Ab-14 light chain variants

Values reported by Li et al. 2023, doi:10.1038/s41467-023-39022-2 (FLAb copy).

All variants were tested on one target, the spike HR2 peptide PDVDLGDISGINAS (SARS-CoV-2).

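Designed CDR sequences, proposed from the first random library and measured here. Several design methods are mixed in this list. AlphaSeq pools MATa yeast showing the antibodies with MATalpha yeast showing the peptide. Mating (16 h, 30 °C) was followed by selection of diploids and sequencing of their barcodes. Each replicate has its own calibration line, from reference interactions of the BCL2 family. Mating was done six times.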

The variants keep the heavy chain, the linker and the frameworks of Ab-14 (scFv order VH, a 15-residue (Gly4Ser)3 linker, VL).
VH: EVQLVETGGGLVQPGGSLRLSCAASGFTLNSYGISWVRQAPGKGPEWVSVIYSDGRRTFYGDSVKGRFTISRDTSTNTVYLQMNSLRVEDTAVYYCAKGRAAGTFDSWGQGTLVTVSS
VL: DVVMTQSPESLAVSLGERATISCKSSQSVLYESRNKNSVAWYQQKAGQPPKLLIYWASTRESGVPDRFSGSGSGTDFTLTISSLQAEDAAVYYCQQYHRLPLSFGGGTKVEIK

Variants are written as CDR1, CDR2 and CDR3 of the light chain (limits as in the source). Parent: KSSQSVLYESRNKNSVA, WASTRES, QQYHRLPLS. Scale: log10 of Kd in nM, estimated from mating counts; low values are strong binders. A mean of the replicates is given; it leaves out those without a signal. A pair that was not seen in any replicate is written "not detected"; this usually means weak binding, but a binder can also be missed. The authors' rule: three or more of the six replicates give a measured affinity, fewer mean a poor binder.

CDR-L1	CDR-L2	CDR-L3	log10 Kd (nM), mean	detected	signal with controls
KQSQSFLNESRNKNSVA	DANTRES	QQYHRLPLS	0.48	6 of 6	0 of 18
RSSQSKLWQSRNKFSVA	WASTRES	QQYHRLPFS	not detected	0 of 6	0 of 18
KTSQSVLYESVNKNSVA	DASTRES	QQYHRLPLS	0.17	6 of 6	2 of 18
KISQSVLYESCNKNSVA	GASTRLS	QQYHRLPLS	0.47	6 of 6	1 of 18
MISDLTMYGSRNKNSVA	DLSTRGS	QQYARLPLS	0.68	6 of 6	0 of 18
HSSQSVLYESRNFNSVA	WASTRES	QQYHRLPLS	2.54	4 of 6	0 of 18
KVSQSNLYESRNKNSVA	NASQRES	QQYHRLPLS	-0.38	6 of 6	1 of 18
TISELYNQALGMRNNVA	NNQTRED	QQYARLPLS	1.36	6 of 6	0 of 18
KLSQSELYESRQKNSVA	NASTRLS	QQYHRLPLS	0.19	6 of 6	0 of 18
KLSCSELMESRNSNSVA	HASKRES	QDYHRLPLS	0.21	6 of 6	2 of 18
IVSQLMIWGMHAKNSIA	EAQTRLN	QQYERLPLF	0.68	6 of 6	0 of 18
KLSQSWLYEGRNKNSVA	SASTRES	QQYHRLPLS	1.23	6 of 6	1 of 18
KFSQLWMYEQRNKNSVA	QASQRED	QQYHRLPLS	0.08	6 of 6	0 of 18
KSSDSVLYENRNKNSVA	WASTRES	QQYHRLPLS	not detected	0 of 6	0 of 18
KLSQSVLYESRNKNSVA	NASTRES	QQYHRLPLH	0.18	6 of 6	2 of 18
KLTMITGTEKVIGNNVA	EMETREN	QQYNRLPLA	-0.23	6 of 6	0 of 18
KSSQSVEMESRNSNSVA	DASQRES	QQYHRLPLS	0.43	6 of 6	1 of 18
KISQMVKVGATHSNSIA	EEVTRAN	QQYHRLPLA	0.83	6 of 6	3 of 18
KSSQSVLMEERNKNSVA	WASTRES	QQYHRLPLS	1.91	6 of 6	0 of 18
KSSQSVLYESENKNSVA	WASTRES	FQYHRLPLS	not detected	0 of 6	0 of 18
MLSQMWAIGMKVKNSVA	QASMRFN	QQYDRLPLI	0.62	6 of 6	0 of 18
LLSGMVEEQETRQKNIA	EVEFRCM	QQYSRLPLS	2.16	2 of 6	0 of 18
KSSQSVDYESNNKNSVA	WASTRES	QQYHRLPLS	1.35	6 of 6	2 of 18
KLSELAHFESRKKNSVA	ENSTRES	QQYDHLPLS	1.93	6 of 6	1 of 18
TLSQLMDMTSRNVNSVA	DLTTRGN	QQYHRLPLS	0.58	6 of 6	0 of 18
KLEQSINYESRNKNSVA	NASTRES	QIYHRLPLS	0.98	6 of 6	0 of 18
MVSQLMVWGMHARNSIA	EAQTRCN	QQYDRLPLF	1.39	6 of 6	1 of 18
KVRQSHLYESRNKNSVA	WASTRES	QQYHRLPLS	0.38	6 of 6	1 of 18
KSSGSVLYEDTNKNSVA	WASTRES	QQYHRLPLS	2.66	6 of 6	0 of 18
QIQDFKENDAEWGDSVA	ETSARTA	QQYHRLPLA	1.65	5 of 6	0 of 18
KFFQSQLYEQRNQNSVA	SASTRLD	QQYHRLPLS	0.12	6 of 6	1 of 18
KLQQSWLYESRNKNSVA	NASYRES	QQYHRLPLS	0.01	6 of 6	2 of 18
KSSQSVLYECRNKNSVA	DASTRES	QQYHRLPLS	1.50	6 of 6	1 of 18
KSSQSVLYESLNKNSVA	DASTRES	QQYHRLPES	1.64	2 of 6	0 of 18
TISQVMNTLTRHGNNVA	DLQEREV	QQYFRLPLS	0.67	6 of 6	1 of 18
HITYGMQVAGRHHSSIA	QAEERAK	QQYDRLPLS	0.61	6 of 6	0 of 18
QVQAFNEHLKDQTQAMA	EATMRDA	QQYERLPLS	0.19	6 of 6	0 of 18
HLQEQSVMDEKNQNSMA	QTEQKYS	QQYARLPFM	1.08	6 of 6	0 of 18
KFSSAWSGEENNNNNIA	SADTLNH	QQYWTLPLS	2.33	1 of 6	0 of 18
MSSQSVLWESPNKNSVA	WGSTRAS	QQYHRLPLS	1.15	6 of 6	0 of 18
KLSQSVEYQSRDKNAVA	DAQTRMS	QQYHRLPLS	-0.15	6 of 6	2 of 18
KVSGSWLYESRNKNSVA	NASTRES	QQYHRLPLS	-0.03	6 of 6	0 of 18
KLSQSVLYESRQKNSVA	NASTRES	QQYHRLPLS	-0.54	6 of 6	0 of 18
ILSQSVLMGSHLKNSVA	QASTRFD	QQYHRLPLS	0.52	6 of 6	1 of 18
KLWMSVNGESRNKNAVA	SASTREQ	QQYHRLPLS	-0.09	6 of 6	0 of 18
KLSQSVLYESRMKNSVA	GASTRES	QQYHRLPLS	-0.21	6 of 6	0 of 18
VLQQLGLYEQRNKNSVA	SASTRCS	QQYHRLPLS	0.41	6 of 6	1 of 18
KLSMVTGHMSVSKNNVA	EMETREN	QQYDRLPLS	0.56	6 of 6	4 of 18
KMSQSNLYESRNKNSVA	WASTRES	QQYHRLPLS	0.66	6 of 6	1 of 18
KFQQWWLYESRMQNNVA	NASLRES	QQYHRLPLS	0.08	6 of 6	1 of 18
KSSQAVLYESRNKNSVA	WASTGES	QQYHRLPLS	not detected	0 of 6	0 of 18
KSSQSWLYESGNKNSVA	HASTRED	QQYHRLPLS	-0.05	6 of 6	1 of 18
KSSQSVLFESRNKNSVA	DASTKES	QQYHRWPLS	3.56	1 of 6	2 of 18
KLFGGILEQERIDYSIA	YATLSVD	QQYDRLPLS	not detected	0 of 6	0 of 18
KLVQFMNRGTHHTSNIA	DAQNRID	QQYYRLPLA	0.62	6 of 6	1 of 18
KFGQSVLMGSYVRNSVA	QSQTREN	QQYDRLPLS	1.89	5 of 6	1 of 18
KITGQYRYESLSKNSIA	EAQTRLK	QQYHRLPLS	0.68	6 of 6	1 of 18
IVSQLMLWGYHAKNSIA	EAELRLN	QQYDRLPLF	2.36	1 of 6	0 of 18
KSPQSELYESRNKNSVA	HASTRED	QSYHRLPLS	1.48	6 of 6	1 of 18
HSSPSVPYESRNKNSVA	NASTRES	QQYHRLPLS	-0.16	6 of 6	2 of 18
MIAHQPESINQRMNNVA	NGAEAVE	QQYDRLPLI	1.19	6 of 6	1 of 18
KSSQSWLYHSRNKNSVA	WASTRES	QQYHRLPLS	2.86	3 of 6	1 of 18
KISYMGEQFSTNHSSIA	QASTREQ	QQYHRLPLS	1.09	6 of 6	0 of 18
MFKMENEEFAQDKHSVA	EAVERES	QQYHRLPII	0.59	5 of 6	0 of 18
KQSQSVLYESRNKNSVA	DASTRED	QQYHRLPLD	-0.14	6 of 6	1 of 18
TLVQSVMGGSRTKNSVA	NAETRYD	QHYHRLPLS	2.26	5 of 6	0 of 18
KISGYLNKESKNKNSVA	EMVNRES	QQYDRLPLS	1.20	6 of 6	2 of 18
KSSQSNLNEDRNKNSVA	SASTRES	QQYHRLPLS	0.55	6 of 6	0 of 18
KISQMVRVGSTHGNSIA	EEATRAD	QQYHRLPLS	0.59	6 of 6	4 of 18
KLSQSWGMESRNKNQVA	HASTRMS	QQYHRLPLS	1.37	6 of 6	1 of 18
KSSQSSLRESRNKNSVA	GASTRES	QQYARLPLS	0.31	6 of 6	1 of 18
KISQMVKVGATHSNSIA	EEVTRAK	QQYHRLPLS	0.79	6 of 6	0 of 18

The first 5 variants above that were never detected:

CDR-L1	CDR-L2	CDR-L3	log10 Kd (nM), mean	detected	signal with controls
RSSQSKLWQSRNKFSVA	WASTRES	QQYHRLPFS	not detected	0 of 6	0 of 18
KSSDSVLYENRNKNSVA	WASTRES	QQYHRLPLS	not detected	0 of 6	0 of 18
KSSQSVLYESENKNSVA	WASTRES	FQYHRLPLS	not detected	0 of 6	0 of 18
KSSQAVLYESRNKNSVA	WASTGES	QQYHRLPLS	not detected	0 of 6	0 of 18
KLFGGILEQERIDYSIA	YATLSVD	QQYDRLPLS	not detected	0 of 6	0 of 18

The parent sequence was in this pool as ten entries: three were never detected, three once, and four in most replicates, with averages from 0.34 to 2.37. Values of this round are not directly comparable with the first-round values of the same sequences. As a blank, each scFv also met three strains without target: over all light chain designs, 4% of these pairings were detected, typically at 2.64 and seldom below 1.59. The control count says in how many pairings with the empty strains this scFv gave a signal.